Test results reported in patent US20070129307A1, “Insulin epitopes for the treatment of type 1 diabetes” (The University of British Columbia, priority 2001, published 2007).

System: human autoreactive T cells (PBMC)
Assay: Interferon gamma ELISPOT of PBMC from type 1 diabetes patients (Example 5)
Type: cell-based
Details: 1 μM peptide, PBMC 20,000 per well, recent onset type 1 diabetes patients, FIG. 8

SLYNTVATL (HIV peptite epitope) [reference compound]
recognition by human autoreactive T cells (interferon-gamma ELISPOT): recognise
